Values of other authors as cited in article PMC5108443 (Cardiovascular Therapeutics, 2016).

Conditions: PARADIGM-HF; cited from earlier work

Q: For Sacubitril/valsartan [LCZ696], which “Incidence of hyperkalemia compared with enalapril” value is on record?
A: Its value is “lower incidence”.
